According to patent US4916065A (priority 1988, dated 1990):

System: B16 melanoma
Test: Antitumor activity against B16 melanoma (ip)

| SMILES | Body weight change on day 5 (0.5 mg/kg/day, Q4D × 3, ip) | MST (median survival time) (0.5 mg/kg/day, Q4D × 3, ip) [days] | T/C (0.5 mg/kg/day, Q4D × 3, ip) [%] | Body weight change on day 5 (1.0 mg/kg/day, Q4D × 3, ip) | MST (median survival time) (1.0 mg/kg/day, Q4D × 3, ip) [days] | T/C (1.0 mg/kg/day, Q4D × 3, ip) [%] | Body weight change on day 5 (0.5 mg/kg/day, QD × 9, ip) [g] | MST (median survival time) (0.5 mg/kg/day, QD × 9, ip) [days] | T/C (0.5 mg/kg/day, QD × 9, ip) [%] | Body weight change on day 5 (1.0 mg/kg/day, QD × 9, ip) [g] | MST (median survival time) (1.0 mg/kg/day, QD × 9, ip) [days] | T/C (1.0 mg/kg/day, QD × 9, ip) [%] | Body weight change on day 5 (2.0 mg/kg/day, Q4D × 3, ip) |
| --- | --- | --- | --- | --- | --- | --- | --- | --- | --- | --- | --- | --- | --- |
| COC1=C(C(=O)O)C(C)C23OC24c2cc(OC(C)=O)c5c(c2NC3C#C/C=C\C#CC14)C(=O)c1c(OC(C)=O)ccc(OC(C)=O)c1C5=O (stereo not drawn) [BU-3420T acetate] | +0.5 g | 21.0 | 156 | -0.3 g | 16.5 | 122 | – | – | – | – | – | – | – |
| COC1=C(C(=O)O)C(C)C23OC24c2cc(O)c5c(c2NC3C#C/C=C\C#CC14)C(=O)c1c(O)ccc(O)c1C5=O (stereo not drawn) [BU-3420T] | – | – | – | – | – | – | -0.5 | 18.5 | 137 | -0.5 | 21.5 | 159 | – |
| CO[C@@]12[C@H](COC(N)=O)C3=C(C(=O)C(C)=C(N)C3=O)N1C[C@@H]1N[C@@H]12 [Mitomycin C, reference compound] | 0.0 g | – | – | +1.0 g | – | – | – | – | – | – | – | – | +0.5 g |
